# Test results as given in ChEMBL document CHEMBL5107989, “Design, synthesis and activity evaluation of isopropylsulfonyl-substituted 2,4- diarylaminopyrimidine derivatives as FAK inhibitors for the potential treatment of pancreatic cancer” (Eur J Med Chem, 2022).
# Sequences of proteins named here, by UniProt entry; tags and fusion partners are left off. A change or cut given only in a name is not applied to a line headed by its entry.
# UniProt Q14289, whole entry, looked up: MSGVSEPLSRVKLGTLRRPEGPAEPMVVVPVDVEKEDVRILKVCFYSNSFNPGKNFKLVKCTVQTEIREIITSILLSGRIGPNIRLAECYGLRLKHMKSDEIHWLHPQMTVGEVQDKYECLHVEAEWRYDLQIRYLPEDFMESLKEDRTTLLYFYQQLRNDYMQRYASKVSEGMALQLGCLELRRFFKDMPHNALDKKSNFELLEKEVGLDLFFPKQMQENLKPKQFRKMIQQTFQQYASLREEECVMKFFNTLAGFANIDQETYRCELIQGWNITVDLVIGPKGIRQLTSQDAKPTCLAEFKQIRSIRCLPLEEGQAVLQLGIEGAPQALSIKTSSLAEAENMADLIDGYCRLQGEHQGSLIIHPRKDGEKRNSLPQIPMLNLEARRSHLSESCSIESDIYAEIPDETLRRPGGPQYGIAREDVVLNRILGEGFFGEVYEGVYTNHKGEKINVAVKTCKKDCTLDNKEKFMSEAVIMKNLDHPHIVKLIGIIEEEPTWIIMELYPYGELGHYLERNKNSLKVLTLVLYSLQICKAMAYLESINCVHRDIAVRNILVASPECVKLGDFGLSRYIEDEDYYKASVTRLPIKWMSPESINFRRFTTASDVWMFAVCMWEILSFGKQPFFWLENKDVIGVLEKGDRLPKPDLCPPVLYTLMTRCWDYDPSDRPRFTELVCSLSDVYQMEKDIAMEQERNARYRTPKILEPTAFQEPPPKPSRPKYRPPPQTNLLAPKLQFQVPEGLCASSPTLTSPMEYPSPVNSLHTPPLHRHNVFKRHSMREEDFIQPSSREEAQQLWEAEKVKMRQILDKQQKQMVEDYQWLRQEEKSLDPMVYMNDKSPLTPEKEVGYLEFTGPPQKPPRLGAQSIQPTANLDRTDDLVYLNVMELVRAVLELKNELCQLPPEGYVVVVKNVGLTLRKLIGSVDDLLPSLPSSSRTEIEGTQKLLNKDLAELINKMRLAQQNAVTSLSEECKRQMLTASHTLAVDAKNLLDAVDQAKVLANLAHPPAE
# UniProt Q9UM73: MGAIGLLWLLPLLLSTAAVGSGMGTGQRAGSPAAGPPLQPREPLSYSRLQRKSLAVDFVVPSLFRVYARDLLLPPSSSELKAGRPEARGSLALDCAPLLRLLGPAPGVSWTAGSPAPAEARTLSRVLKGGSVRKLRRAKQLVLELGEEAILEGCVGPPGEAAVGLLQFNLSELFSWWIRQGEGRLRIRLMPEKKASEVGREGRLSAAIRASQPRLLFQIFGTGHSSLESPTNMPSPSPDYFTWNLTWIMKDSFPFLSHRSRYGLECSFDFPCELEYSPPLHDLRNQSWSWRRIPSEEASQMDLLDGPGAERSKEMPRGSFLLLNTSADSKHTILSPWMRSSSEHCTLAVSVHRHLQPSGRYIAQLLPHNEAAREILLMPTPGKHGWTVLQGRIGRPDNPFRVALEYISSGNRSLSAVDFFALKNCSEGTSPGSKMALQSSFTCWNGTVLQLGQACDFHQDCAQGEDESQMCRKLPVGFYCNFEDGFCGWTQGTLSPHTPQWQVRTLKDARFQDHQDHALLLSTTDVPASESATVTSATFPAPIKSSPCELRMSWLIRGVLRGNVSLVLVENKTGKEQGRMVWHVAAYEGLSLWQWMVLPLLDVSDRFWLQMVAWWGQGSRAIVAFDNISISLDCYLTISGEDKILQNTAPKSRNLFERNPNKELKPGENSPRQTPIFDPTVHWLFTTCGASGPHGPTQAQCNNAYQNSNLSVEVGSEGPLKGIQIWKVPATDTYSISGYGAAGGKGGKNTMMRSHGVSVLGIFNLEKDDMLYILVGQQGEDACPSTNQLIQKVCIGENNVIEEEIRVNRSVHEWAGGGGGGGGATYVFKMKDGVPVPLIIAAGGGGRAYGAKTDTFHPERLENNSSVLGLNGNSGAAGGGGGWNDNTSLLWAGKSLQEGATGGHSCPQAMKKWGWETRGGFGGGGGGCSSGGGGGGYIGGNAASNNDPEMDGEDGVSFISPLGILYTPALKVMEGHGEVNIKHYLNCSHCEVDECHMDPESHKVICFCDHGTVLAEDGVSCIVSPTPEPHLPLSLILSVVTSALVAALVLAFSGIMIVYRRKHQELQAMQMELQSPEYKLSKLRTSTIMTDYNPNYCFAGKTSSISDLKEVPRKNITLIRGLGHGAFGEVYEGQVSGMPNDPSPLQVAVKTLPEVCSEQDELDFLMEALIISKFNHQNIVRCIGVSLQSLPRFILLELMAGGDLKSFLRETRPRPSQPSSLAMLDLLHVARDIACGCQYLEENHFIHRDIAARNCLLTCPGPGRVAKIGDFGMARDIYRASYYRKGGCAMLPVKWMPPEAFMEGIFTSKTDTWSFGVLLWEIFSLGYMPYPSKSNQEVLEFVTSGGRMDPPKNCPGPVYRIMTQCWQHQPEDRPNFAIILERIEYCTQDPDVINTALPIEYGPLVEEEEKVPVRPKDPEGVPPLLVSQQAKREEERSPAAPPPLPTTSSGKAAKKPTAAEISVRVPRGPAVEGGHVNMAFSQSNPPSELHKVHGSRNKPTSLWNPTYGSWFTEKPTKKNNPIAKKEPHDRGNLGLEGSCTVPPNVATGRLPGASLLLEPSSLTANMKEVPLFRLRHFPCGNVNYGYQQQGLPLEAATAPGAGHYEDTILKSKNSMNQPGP
# UniProt Q08345: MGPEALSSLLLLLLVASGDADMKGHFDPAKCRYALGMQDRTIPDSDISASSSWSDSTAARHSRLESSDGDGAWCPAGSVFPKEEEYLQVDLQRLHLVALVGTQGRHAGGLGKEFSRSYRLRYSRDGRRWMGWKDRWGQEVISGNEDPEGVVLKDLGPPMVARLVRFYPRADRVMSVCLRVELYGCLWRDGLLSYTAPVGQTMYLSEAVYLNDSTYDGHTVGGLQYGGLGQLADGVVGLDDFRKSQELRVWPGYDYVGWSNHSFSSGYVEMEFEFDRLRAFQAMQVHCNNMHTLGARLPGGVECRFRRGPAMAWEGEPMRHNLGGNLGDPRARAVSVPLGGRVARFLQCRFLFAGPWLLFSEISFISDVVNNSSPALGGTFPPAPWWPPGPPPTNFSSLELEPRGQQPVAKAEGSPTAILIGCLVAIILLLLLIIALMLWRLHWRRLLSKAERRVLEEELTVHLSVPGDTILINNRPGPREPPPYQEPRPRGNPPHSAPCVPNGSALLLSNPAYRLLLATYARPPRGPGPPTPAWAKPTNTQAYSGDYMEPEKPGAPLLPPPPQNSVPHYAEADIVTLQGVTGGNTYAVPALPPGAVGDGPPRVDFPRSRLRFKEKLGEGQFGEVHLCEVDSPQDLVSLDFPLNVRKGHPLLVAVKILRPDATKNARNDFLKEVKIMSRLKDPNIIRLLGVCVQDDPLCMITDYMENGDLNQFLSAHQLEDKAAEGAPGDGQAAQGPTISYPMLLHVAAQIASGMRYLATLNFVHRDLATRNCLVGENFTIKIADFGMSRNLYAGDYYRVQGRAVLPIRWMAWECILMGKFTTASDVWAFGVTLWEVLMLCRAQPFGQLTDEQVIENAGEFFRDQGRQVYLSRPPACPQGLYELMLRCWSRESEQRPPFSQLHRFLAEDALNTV
# Legend:
# Details in all cases: dose 10.0 nM
# [1] = molecular target: Protein-tyrosine kinase 2-beta (Homo sapiens) (UniProt Q14289)
# [2] = molecular target: T1, Muscle, skeletal receptor tyrosine-protein kinase (Homo sapiens) (UniProt O15146)
# T1 sequence (whole entry): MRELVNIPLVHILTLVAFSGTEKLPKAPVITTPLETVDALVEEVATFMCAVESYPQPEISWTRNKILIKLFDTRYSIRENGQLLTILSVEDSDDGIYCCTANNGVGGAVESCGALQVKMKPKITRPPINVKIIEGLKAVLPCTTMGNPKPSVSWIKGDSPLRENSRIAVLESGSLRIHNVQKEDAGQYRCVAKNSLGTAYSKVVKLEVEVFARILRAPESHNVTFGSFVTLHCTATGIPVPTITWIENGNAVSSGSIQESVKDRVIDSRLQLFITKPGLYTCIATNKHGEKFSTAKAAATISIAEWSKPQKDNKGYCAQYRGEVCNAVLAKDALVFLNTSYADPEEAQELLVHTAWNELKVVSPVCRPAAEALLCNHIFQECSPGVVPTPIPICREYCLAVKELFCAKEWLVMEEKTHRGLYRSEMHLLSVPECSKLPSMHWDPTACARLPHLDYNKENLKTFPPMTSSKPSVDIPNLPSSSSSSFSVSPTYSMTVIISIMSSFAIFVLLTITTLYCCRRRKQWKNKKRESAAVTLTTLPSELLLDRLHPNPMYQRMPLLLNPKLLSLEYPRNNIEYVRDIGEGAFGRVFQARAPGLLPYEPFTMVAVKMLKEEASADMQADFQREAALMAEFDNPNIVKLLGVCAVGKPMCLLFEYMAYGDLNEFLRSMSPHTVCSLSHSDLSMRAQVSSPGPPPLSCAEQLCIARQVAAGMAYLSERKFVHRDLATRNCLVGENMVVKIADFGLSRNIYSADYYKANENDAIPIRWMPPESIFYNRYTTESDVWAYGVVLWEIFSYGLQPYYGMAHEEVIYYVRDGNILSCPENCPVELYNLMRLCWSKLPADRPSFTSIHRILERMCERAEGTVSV
# [3] = molecular target: ALK tyrosine kinase receptor (Homo sapiens) (UniProt Q9UM73)
# [4] = molecular target: Epithelial discoidin domain-containing receptor 1 (Homo sapiens) (UniProt Q08345)
structure (smiles),measurement,setting,value
CCOP(=O)(CC(=O)Nc1ccc(Nc2ncc(Cl)c(Nc3ccccc3S(=O)(=O)C(C)C)n2)cc1)OCC,inhibition,[1],91.5%
same,inhibition,[2],93.4%
same,inhibition,[3],92.7%
same,inhibition,[4],91%
